The values that follow come from ChEMBL document CHEMBL5316306, “Discovery of Highly Selective Inhibitors of the Human Constitutive Proteasome β5c Chymotryptic Subunit” (J Med Chem, 2023).

A short description of the assay: Selectivity index, ratio of IC50 for 20s immunoproteasome beta-5i subunit (unknown origin) to IC50 for 20s constitutive proteasome beta-5i subunit (unknown origin).

For the compound `CC(C)(C)NC(=O)C[C@H](NC(=O)C(=O)c1c[nH]c2ccccc12)C(=O)NCc1cccc(B(O)O)c1`, the Ratio IC50 worked out at 710.
